{
  "sequences": {"note": "Amino acid sequences for entries named in this document (tags omitted). A change or cut given only in a name is not applied to a line headed by its entry.", "UniProt Q99572": "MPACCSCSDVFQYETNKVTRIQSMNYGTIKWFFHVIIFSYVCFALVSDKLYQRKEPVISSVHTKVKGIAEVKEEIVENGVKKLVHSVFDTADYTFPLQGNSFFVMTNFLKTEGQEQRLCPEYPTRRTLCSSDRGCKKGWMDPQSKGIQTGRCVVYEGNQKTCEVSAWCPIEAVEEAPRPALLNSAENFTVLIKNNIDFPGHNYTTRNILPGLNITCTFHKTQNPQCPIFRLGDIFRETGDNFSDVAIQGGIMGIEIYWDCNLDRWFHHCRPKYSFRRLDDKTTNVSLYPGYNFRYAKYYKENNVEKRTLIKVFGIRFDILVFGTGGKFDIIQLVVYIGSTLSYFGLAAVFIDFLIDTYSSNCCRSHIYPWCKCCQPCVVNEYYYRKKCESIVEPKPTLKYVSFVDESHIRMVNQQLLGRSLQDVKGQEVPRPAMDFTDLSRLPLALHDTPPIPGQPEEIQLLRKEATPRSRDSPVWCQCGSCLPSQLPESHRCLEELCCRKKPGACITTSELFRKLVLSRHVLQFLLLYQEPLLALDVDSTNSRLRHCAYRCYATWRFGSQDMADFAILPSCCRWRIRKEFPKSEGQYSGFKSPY"},
  "source": "ChEMBL document CHEMBL2218064",
  "about": "“Structure-activity relationship data for chemical series of antagonists of the P2X7 receptor (Supplementary Bioactivity Data for publication CHEMBL1157114)”",
  "note": "pIC50: −log10 of the molar value.",
  "data": [
    {"molecular_target": "P2X purinoceptor 7 (Homo sapiens, UniProt Q99572)", "experiment": "SUPPLEMENTARY: Inhibition of human P2X7 receptor assessed as inhibition of ethidium bromide accumulation. Same assay as CHEMBL1103860", "values": [
      {"smiles": "CN1CC(C(=O)NCc2cccc(C(F)(F)F)c2Cl)N(C)C1=O", "note": "(configuration not stated)", "pIC50": 8.80},
      {"smiles": "CCN1C(=O)CC[C@@H]1C(=O)NCc1cccc(C(F)(F)F)c1Cl", "pIC50": 8.00},
      {"smiles": "CCN1C(=O)CC[C@@H]1C(=O)NCc1ccc(Cl)cc1Cl", "pIC50": 7.40},
      {"smiles": "CCN1C(=O)CC[C@H]1C(=O)NCc1cccc(Cl)c1", "pIC50": 6.00},
      {"smiles": "CCN1C(=O)CC[C@@H]1C(=O)NCc1cccc(Cl)c1Cl", "pIC50": 7.10},
      {"smiles": "O=C(NCc1ccc(F)cc1Cl)[C@H]1CCC(=O)N1C1CCC1", "pIC50": 6.10},
      {"smiles": "O=C(NCc1ccc(F)cc1Cl)[C@H]1CCC(=O)N1Cc1ccccc1", "pIC50": 7.10}
    ]}
  ]
}
